Columns and labels:
[1] = target: T1, Muscarinic acetylcholine receptor M3 (Homo sapiens, UniProt P20309); experiment: Displacement of [3H]N-methyl Scopolamine from human muscarinic acetylcholine M3 receptor expressed in CHO cells by scintillation proximity assay; assay type: cell-based
[2] = target: Muscarinic acetylcholine receptor M1 (Homo sapiens, UniProt P11229); experiment: Antagonist activity at human muscarinic acetylcholine M1 receptor expressed in CHO cells assessed as inhibition of acetylcholine-induced calcium mobilization by single concentration kinetic FLIPR assay; assay type: functional, cell-based; conditions: read-out: pA2 (converted)
Procedure, shortened: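 CHO cells stably expressing the human recombinant muscarinic receptor subtype, in a fluorometric imaging plate reader (FLIPR) assay. Read-out is inhibition of acetylcholine-mediated intracellular Ca2+ mobilization. Results are the mean of at least two determinations.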

The chains behind the UniProt entries cited, without tags or fusion partners. Where a name states a change or a piece, a line headed by the entry shows the natural chain unless it says otherwise.
UniProt P11229: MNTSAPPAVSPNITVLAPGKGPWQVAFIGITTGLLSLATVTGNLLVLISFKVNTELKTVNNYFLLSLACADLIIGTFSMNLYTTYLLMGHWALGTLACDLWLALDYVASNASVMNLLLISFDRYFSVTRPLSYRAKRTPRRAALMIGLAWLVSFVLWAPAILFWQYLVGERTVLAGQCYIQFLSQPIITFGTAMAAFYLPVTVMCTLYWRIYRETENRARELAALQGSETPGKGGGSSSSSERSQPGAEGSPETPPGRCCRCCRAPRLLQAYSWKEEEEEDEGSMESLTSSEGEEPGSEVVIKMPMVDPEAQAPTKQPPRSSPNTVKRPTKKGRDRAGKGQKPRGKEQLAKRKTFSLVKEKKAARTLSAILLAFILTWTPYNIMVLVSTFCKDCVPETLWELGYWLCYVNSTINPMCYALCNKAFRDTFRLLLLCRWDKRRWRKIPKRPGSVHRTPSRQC
UniProt P08172, whole entry: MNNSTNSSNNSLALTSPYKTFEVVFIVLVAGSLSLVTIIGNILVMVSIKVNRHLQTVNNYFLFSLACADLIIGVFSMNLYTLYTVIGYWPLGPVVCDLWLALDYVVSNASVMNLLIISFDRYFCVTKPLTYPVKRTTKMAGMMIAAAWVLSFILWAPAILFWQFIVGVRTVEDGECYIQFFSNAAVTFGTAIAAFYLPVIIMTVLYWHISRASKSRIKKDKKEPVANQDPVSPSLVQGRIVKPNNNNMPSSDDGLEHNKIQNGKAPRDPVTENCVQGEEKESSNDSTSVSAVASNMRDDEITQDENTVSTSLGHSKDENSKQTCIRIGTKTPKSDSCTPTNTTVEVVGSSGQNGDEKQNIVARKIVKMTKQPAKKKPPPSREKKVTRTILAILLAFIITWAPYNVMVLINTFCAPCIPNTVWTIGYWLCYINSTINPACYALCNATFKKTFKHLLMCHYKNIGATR

[3] = target: Muscarinic acetylcholine receptor M2 (Homo sapiens, UniProt P08172); experiment: Displacement of [3H]N-methyl Scopolamine from human muscarinic acetylcholine M2 receptor expressed in CHO cells coexpressed with Gqi5 by scintillation proximity assay; assay type: cell-based
[4] = target: T1, Muscarinic acetylcholine receptor M3; experiment: Displacement of [3H]N-methyl Scopolamine from human muscarinic acetylcholine M3 receptor expressed in CHO cells by scintillation proximity assay

## CC(C)OC(=O)c1ccc(NC(=O)N[C@@H](Cc2ccc(O)cc2)C(=O)N[C@H]2CCC[N+](C)(Cc3cccc(O)c3)C2)cc1.[I-] (some centres undefined)
[1]
  Ki: 31.6 nM
[2]
  Kb: 0.126 nM
[3]
  Ki: 3.16 nM
[4]
  Ki: 0.316 nM
